Measurements reported in patent US9340590B2 (priority 2011, dated 2016).
Read-outs that look alike come from different tables or passages of the source.

By UniProt entry, the sequences of proteins in these tests, tags left out.
UniProt Q15858, whole entry, looked up: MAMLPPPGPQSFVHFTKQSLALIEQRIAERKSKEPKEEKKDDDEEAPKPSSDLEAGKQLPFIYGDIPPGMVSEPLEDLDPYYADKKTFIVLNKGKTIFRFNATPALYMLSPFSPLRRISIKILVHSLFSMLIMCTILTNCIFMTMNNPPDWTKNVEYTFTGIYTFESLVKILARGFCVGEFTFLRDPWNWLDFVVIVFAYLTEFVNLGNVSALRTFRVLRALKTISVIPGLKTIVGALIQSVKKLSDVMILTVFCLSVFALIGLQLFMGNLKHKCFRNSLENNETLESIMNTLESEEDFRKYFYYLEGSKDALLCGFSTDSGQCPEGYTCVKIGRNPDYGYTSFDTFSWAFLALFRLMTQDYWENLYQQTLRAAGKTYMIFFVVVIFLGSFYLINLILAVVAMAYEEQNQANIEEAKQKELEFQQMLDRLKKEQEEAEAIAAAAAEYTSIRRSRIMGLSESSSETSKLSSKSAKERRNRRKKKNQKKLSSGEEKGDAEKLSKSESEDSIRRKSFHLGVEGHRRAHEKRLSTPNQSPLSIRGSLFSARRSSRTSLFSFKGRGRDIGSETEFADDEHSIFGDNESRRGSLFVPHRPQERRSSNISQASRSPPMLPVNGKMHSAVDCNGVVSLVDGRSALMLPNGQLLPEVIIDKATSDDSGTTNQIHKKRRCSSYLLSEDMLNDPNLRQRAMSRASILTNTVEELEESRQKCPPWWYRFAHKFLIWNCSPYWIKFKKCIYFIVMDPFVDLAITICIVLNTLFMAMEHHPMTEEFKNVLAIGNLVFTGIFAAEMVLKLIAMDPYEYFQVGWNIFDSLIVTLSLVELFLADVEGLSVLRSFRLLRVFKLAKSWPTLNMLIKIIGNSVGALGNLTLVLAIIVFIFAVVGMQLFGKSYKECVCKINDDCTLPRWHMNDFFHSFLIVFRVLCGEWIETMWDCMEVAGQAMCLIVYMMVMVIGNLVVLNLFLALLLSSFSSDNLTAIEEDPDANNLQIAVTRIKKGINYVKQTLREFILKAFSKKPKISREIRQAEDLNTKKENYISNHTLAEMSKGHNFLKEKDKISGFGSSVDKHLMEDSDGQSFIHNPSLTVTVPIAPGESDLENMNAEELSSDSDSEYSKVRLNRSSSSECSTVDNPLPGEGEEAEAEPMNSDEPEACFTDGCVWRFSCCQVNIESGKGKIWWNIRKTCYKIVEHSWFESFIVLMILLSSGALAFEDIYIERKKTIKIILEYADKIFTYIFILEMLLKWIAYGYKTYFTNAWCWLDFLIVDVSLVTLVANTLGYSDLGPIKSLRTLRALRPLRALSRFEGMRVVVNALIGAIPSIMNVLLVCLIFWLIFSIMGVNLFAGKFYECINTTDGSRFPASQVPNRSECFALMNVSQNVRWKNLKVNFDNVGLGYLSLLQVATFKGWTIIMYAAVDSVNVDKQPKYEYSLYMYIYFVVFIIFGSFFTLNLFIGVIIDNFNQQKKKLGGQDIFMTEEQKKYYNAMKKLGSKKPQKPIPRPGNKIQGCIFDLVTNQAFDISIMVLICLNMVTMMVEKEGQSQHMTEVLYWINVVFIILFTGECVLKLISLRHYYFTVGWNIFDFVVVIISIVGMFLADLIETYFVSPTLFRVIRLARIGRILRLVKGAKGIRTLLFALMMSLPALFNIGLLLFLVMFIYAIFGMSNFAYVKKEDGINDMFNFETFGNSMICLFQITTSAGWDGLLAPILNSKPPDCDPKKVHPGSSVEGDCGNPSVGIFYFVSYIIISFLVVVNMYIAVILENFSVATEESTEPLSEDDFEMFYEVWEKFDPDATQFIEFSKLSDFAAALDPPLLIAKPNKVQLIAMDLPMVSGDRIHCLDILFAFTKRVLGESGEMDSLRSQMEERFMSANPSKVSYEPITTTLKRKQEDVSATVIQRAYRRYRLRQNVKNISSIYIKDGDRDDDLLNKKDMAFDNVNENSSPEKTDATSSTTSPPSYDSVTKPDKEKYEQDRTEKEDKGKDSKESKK
UniProt Q14524, whole entry, looked up: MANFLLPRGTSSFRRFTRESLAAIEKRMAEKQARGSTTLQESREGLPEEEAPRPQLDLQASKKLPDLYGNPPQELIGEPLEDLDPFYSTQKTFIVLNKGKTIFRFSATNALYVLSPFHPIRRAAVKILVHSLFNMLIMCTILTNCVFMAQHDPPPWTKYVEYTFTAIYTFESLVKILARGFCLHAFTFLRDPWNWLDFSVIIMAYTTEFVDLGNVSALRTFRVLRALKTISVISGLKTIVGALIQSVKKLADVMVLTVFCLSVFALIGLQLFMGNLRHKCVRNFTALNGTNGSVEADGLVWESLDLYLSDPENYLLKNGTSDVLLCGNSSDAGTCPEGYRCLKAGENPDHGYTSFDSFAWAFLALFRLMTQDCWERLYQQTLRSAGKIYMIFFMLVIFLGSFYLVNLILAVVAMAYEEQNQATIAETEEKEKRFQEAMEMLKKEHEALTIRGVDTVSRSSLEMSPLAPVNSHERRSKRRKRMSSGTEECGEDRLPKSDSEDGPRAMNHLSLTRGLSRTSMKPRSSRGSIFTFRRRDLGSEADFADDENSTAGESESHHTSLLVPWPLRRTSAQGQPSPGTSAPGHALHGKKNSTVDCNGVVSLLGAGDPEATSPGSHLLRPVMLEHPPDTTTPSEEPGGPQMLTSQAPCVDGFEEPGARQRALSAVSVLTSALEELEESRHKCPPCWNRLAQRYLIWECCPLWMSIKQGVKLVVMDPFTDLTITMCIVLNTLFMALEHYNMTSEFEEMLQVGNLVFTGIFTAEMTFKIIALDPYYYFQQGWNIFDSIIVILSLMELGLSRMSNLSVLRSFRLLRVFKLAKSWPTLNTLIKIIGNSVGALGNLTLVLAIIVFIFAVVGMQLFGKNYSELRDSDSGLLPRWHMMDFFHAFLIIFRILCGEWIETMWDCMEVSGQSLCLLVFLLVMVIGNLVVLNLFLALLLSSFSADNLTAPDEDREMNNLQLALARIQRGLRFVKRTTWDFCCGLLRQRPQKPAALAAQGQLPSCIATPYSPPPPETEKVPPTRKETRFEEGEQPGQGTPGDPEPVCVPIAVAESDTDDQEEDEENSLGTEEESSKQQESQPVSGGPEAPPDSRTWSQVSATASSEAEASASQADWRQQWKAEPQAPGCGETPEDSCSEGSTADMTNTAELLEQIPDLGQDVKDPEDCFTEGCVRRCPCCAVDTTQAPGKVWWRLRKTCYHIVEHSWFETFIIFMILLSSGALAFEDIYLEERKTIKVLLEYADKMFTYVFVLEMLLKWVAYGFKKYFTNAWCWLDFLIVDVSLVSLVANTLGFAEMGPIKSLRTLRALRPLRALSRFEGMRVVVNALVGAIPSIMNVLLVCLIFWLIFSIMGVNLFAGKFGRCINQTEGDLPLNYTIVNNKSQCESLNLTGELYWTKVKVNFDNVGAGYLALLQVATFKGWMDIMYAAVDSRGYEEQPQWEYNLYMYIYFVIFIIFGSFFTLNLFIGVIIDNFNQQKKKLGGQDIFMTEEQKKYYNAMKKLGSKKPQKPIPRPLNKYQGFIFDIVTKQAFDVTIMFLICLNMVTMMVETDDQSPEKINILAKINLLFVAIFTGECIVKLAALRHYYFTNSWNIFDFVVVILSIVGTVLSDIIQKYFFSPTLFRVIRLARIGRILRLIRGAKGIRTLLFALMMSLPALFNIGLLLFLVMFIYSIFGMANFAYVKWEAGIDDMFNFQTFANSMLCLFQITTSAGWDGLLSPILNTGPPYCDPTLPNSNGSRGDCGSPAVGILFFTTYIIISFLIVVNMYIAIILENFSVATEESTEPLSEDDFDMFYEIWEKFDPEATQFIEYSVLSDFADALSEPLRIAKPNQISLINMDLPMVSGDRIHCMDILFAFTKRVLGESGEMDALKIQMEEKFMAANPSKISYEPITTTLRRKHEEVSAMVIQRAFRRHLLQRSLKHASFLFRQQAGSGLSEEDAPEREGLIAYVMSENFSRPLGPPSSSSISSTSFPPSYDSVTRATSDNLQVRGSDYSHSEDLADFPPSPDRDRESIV

How the values were obtained:
Assay in all cases: cell-based
hNav1.7 [1] = target: T1, hNav1.7 (Homo sapiens, UniProt Q15858)
hNav1.7 [2] = target: T1, hNav1.7; type: cell-based
hNav1.5 = hNav1.5 (Homo sapiens, UniProt Q14524); conditions: IonWorks Quattro, read-out: IWQ Use Nav1.5

Molecule | IC50 (hNav1.7 [1]) [nM] | IC50 (hNav1.7 [2]; Nav1.7 Use IC50) [nM] | further results
CC[C@H](C)[C@@H]1NC(=O)[C@@H]2CSSC[C@@H]3NC(=O)[C@H](C(C)C)NC(=O)[C@H](CC(C)C)NC(=O)[C@H](CC(N)=O)NC(=O)[C@@H]4CCCN4C(=O)[C@H](CCCNC(=N)N)NC(=O)[C@H](CSSC[C@H](NC(=O)[C@@H](N)CC(=O)O)C(=O)N[C@@H](CC(C)C)C(=O)NCC(=O)N[C@@H](Cc4ccccc4)C(=O)N[C@@H](CCSC)C(=O)N[C@@H](CCCNC(=N)N)C(=O)N[C@@H](CCCCN)C(=O)N2)NC(=O)[C@H](CSSC[C@@H](C(=O)N[C@@H](CCCCN)C(=O)N[C@@H](Cc2ccc(O)cc2)C(=O)N[C@H](C(=O)N[C@@H](Cc2ccccc2)C(N)=O)C(C)C)NC(=O)[C@H](Cc2cccc4ccccc24)NC(=O)[C@H](CCCCN)NC(=O)[C@H](Cc2cnc[nH]2)NC(=O)[C@H]([C@@H](C)O)NC(=O)[C@H](CCCNC(=N)N)NC(=O)[C@H](CO)NC3=O)NC(=O)[C@H](CCCCN)NC(=O)[C@H](CC(=O)O)NC(=O)[C@H](CC(N)=O)NC(=O)[C@H](CC(=O)O)NC(=O)[C@@H]2CCCN2C1=O [SEQ ID NO: 79, [1-Nal29]GpTx-1] | 460 |  | 
CC[C@H](C)[C@@H]1NC(=O)[C@@H]2CSSC[C@@H]3NC(=O)[C@H](C(C)C)NC(=O)[C@H](CC(C)C)NC(=O)[C@H](CC(N)=O)NC(=O)[C@@H]4CCCN4C(=O)[C@H](CCCNC(=N)N)NC(=O)[C@H](CSSC[C@H](NC(=O)[C@@H](N)CC(=O)O)C(=O)N[C@@H](CC(C)C)C(=O)NCC(=O)N[C@@H](Cc4ccccc4)C(=O)N[C@@H](CCSC)C(=O)N[C@@H](CCCNC(=N)N)C(=O)N[C@@H](CCCCN)C(=O)N2)NC(=O)[C@H](CSSC[C@@H](C(=O)N[C@@H](CCCCN)C(=O)N[C@@H](Cc2ccc(O)cc2)C(=O)N[C@H](C(=O)N[C@@H](Cc2ccccc2)C(N)=O)C(C)C)NC(=O)[C@H](Cc2cccc4ccccc24)NC(=O)[C@H](CCCCN)NC(=O)[C@H](Cc2c[nH]cn2)NC(=O)[C@H]([C@@H](C)O)NC(=O)[C@H](CCCNC(=N)N)NC(=O)[C@H](CO)NC3=O)NC(=O)[C@H](CCCCN)NC(=O)[C@H](CC(=O)O)NC(=O)[C@H](CC(N)=O)NC(=O)[C@H](CC(=O)O)NC(=O)[C@@H]2CCCN2C1=O [[1-Nal29]GpTx-1(1-34)] |  |  | IC50 (hNav1.7 [2]; read-out: Nav1.7 Use IC50): 33 nM
CC[C@H](C)[C@@H]1NC(=O)[C@@H]2CSSC[C@@H]3NC(=O)[C@H](C(C)C)NC(=O)[C@H](CC(C)C)NC(=O)[C@H](CC(N)=O)NC(=O)[C@@H]4CCCN4C(=O)[C@H](CCCNC(=N)N)NC(=O)[C@H](CSSC[C@H](NC(=O)[C@@H](N)CC(=O)O)C(=O)N[C@@H](CC(C)C)C(=O)NCC(=O)N[C@@H](C)C(=O)N[C@@H](CC(C)C)C(=O)N[C@@H](CCCNC(=N)N)C(=O)N[C@@H](CCCCN)C(=O)N2)NC(=O)[C@H](CSSC[C@@H](C(=O)N[C@@H](CCCCN)C(=O)N[C@@H](Cc2ccc(O)cc2)C(=O)N[C@H](C(=O)N[C@@H](Cc2ccccc2)C(N)=O)C(C)C)NC(=O)[C@H](Cc2c[nH]c4ccccc24)NC(=O)[C@H](CCCNC(=N)N)NC(=O)[C@H](Cc2cnc[nH]2)NC(=O)[C@H]([C@@H](C)O)NC(=O)[C@H](CCCNC(=N)N)NC(=O)[C@H](CO)NC3=O)NC(=O)[C@H](CCCCN)NC(=O)[C@H](CC(=O)O)NC(=O)[C@H](CC(N)=O)NC(=O)[C@H](CC(=O)O)NC(=O)[C@@H]2CCCN2C1=O [[Ala5;Leu6;Arg28]GpTx-1(1-34)] |  | 9 | 
CC[C@H](C)[C@@H]1NC(=O)[C@@H]2CSSC[C@@H]3NC(=O)[C@H](C(C)C)NC(=O)[C@H](CC(C)C)NC(=O)[C@H](CC(N)=O)NC(=O)[C@@H]4CCCN4C(=O)[C@H](CCCNC(=N)N)NC(=O)[C@H](CSSC[C@H](NC(=O)[C@@H](N)CC(=O)O)C(=O)N[C@@H](CC(C)C)C(=O)NCC(=O)N[C@@H](C)C(=O)N[C@@H](CC(C)C)C(=O)N[C@@H](CCCNC(=N)N)C(=O)N[C@@H](CCCCN)C(=O)N2)NC(=O)[C@H](CSSC[C@@H](C(=O)N[C@@H](CCCCN)C(=O)N[C@@H](Cc2ccc(O)cc2)C(=O)N[C@H](C(=O)N[C@@H](Cc2ccccc2)C(N)=O)C(C)C)NC(=O)[C@H](Cc2c[nH]c4ccccc24)NC(=O)[C@H](CCCCN)NC(=O)[C@H](Cc2cnc[nH]2)NC(=O)[C@H]([C@@H](C)O)NC(=O)[C@H](CCCNC(=N)N)NC(=O)[C@H](CO)NC3=O)NC(=O)[C@H](CCCCN)NC(=O)[C@H](CC(=O)O)NC(=O)[C@H](CC(N)=O)NC(=O)[C@H](CC(=O)O)NC(=O)[C@@H]2CCCN2C1=O [[Ala5;Leu6]GpTx-1(1-34)] |  | 30 | 
CC[C@H](C)[C@@H]1NC(=O)[C@@H]2CSSC[C@@H]3NC(=O)[C@H](C(C)C)NC(=O)[C@H](CC(C)C)NC(=O)[C@H](CC(N)=O)NC(=O)[C@@H]4CCCN4C(=O)[C@H](CCCNC(=N)N)NC(=O)[C@H](CSSC[C@H](NC(=O)[C@@H](N)CC(=O)O)C(=O)N[C@@H](CC(C)C)C(=O)NCC(=O)N[C@@H](C)C(=O)N[C@@H](Cc4ccccc4)C(=O)N[C@@H](CCCNC(=N)N)C(=O)N[C@@H](CCCCN)C(=O)N2)NC(=O)[C@H](CSSC[C@@H](C(=O)N[C@@H](CCCCN)C(=O)N[C@@H](Cc2ccc(O)cc2)C(=O)N[C@H](C(=O)N[C@@H](Cc2ccccc2)C(N)=O)C(C)C)NC(=O)[C@H](Cc2c[nH]c4ccccc24)NC(=O)[C@H](CCCNC(=N)N)NC(=O)[C@H](Cc2cnc[nH]2)NC(=O)[C@H]([C@@H](C)O)NC(=O)[C@H](CCCNC(=N)N)NC(=O)[C@H](CO)NC3=O)NC(=O)[C@H](CCCCN)NC(=O)[C@H](CC(=O)O)NC(=O)[C@H](CC(N)=O)NC(=O)[C@H](CC(=O)O)NC(=O)[C@@H]2CCCN2C1=O [[Ala5;Phe6;Arg28]GpTx-1(1-34)] |  | 12 | 
CC[C@H](C)[C@@H]1NC(=O)[C@@H]2CSSC[C@@H]3NC(=O)[C@H](C(C)C)NC(=O)[C@H](CC(C)C)NC(=O)[C@H](CC(N)=O)NC(=O)[C@@H]4CCCN4C(=O)[C@H](CCCNC(=N)N)NC(=O)[C@H](CSSC[C@H](NC(=O)[C@@H](N)CC(=O)O)C(=O)N[C@@H](CC(C)C)C(=O)NCC(=O)N[C@H](C)C(=O)N[C@@H](CC(C)C)C(=O)N[C@@H](CCCNC(=N)N)C(=O)N[C@@H](CCCCN)C(=O)N2)NC(=O)[C@H](CSSC[C@@H](C(=O)N[C@@H](CCCCN)C(=O)N[C@@H](Cc2ccc(O)cc2)C(=O)N[C@H](C(=O)N[C@@H](Cc2ccccc2)C(N)=O)C(C)C)NC(=O)[C@H](Cc2c[nH]c4ccccc24)NC(=O)[C@H](CCCCN)NC(=O)[C@H](Cc2c[nH]cn2)NC(=O)[C@H]([C@@H](C)O)NC(=O)[C@H](CCCNC(=N)N)NC(=O)[C@H](CO)NC3=O)NC(=O)[C@H](CCCCN)NC(=O)[C@H](CC(=O)O)NC(=O)[C@H](CC(N)=O)NC(=O)[C@H](CC(=O)O)NC(=O)[C@@H]2CCCN2C1=O [compound 633] | 10700 |  | IC50 (hNav1.5; use-dependent protocol): 7.1 µM
CC[C@H](C)[C@@H]1NC(=O)[C@@H]2CSSC[C@@H]3NC(=O)[C@H](C(C)C)NC(=O)[C@H](CC(C)C)NC(=O)[C@H](CC(N)=O)NC(=O)[C@@H]4CCCN4C(=O)[C@H](CCCNC(=N)N)NC(=O)[C@H](CSSC[C@H](NC(=O)[C@@H](N)CC(=O)O)C(=O)N[C@@H](CC(C)C)C(=O)NCC(=O)N[C@@H](C)C(=O)N[C@@H](CC(C)C)C(=O)N[C@@H](CCCNC(=N)N)C(=O)N[C@@H](CCCCN)C(=O)N2)NC(=O)[C@H](CSSC[C@@H](C(=O)N[C@@H](CCCCN)C(=O)N[C@@H](Cc2ccc(O)cc2)C(=O)N[C@H](C(=O)N[C@@H](Cc2ccccc2)C(N)=O)C(C)C)NC(=O)[C@H](Cc2c[nH]c4ccccc24)NC(=O)[C@H](CCCCN)NC(=O)[C@H](Cc2cnc[nH]2)NC(=O)[C@H]([C@@H](C)O)NC(=O)[C@H](CCCNC(=N)N)NC(=O)[C@H](CO)NC3=O)NC(=O)[C@H](CCCCN)NC(=O)[C@H](CC(=O)O)NC(=O)[C@H](CC(N)=O)NC(=O)[C@H](CC(=O)O)NC(=O)[C@@H]2CCCN2C1=O [compound 696] | 270 |  | IC50 (hNav1.5; use-dependent protocol): > 5 µM
CC[C@H](C)[C@@H]1NC(=O)[C@@H]2CSSC[C@@H]3NC(=O)[C@H](C(C)C)NC(=O)[C@H](CC(C)C)NC(=O)[C@H](CC(N)=O)NC(=O)[C@@H]4CCCN4C(=O)[C@H](CCCNC(=N)N)NC(=O)[C@H](CSSC[C@H](NC(=O)[C@@H](N)CC(=O)O)C(=O)N[C@@H](CC(C)C)C(=O)NCC(=O)N[C@@H](C)C(=O)N[C@@H](Cc4ccccc4)C(=O)N[C@@H](CCCNC(=N)N)C(=O)N[C@@H](CCCCN)C(=O)N2)NC(=O)[C@H](CSSC[C@@H](C(=O)N[C@@H](CCCCN)C(=O)N[C@@H](Cc2ccc(O)cc2)C(=O)N[C@H](C(=O)N[C@@H](Cc2ccccc2)C(N)=O)C(C)C)NC(=O)[C@H](Cc2c[nH]c4ccccc24)NC(=O)[C@H](CCCNC(=N)N)NC(=O)[C@H](Cc2cnc[nH]2)NC(=O)[C@H]([C@@H](C)O)NC(=O)[C@H](CCCNC(=N)N)NC(=O)[C@H](CO)NC3=O)NC(=O)[C@H](CCCCN)NC(=O)[C@H](CC(=O)O)NC(=O)[C@H](CC(N)=O)NC(=O)[C@H](CC(=O)O)NC(=O)[C@@H]2CCCN2C1=O [compound 809] | 300 |  | IC50 (hNav1.5; use-dependent block): > 5 µM
Biotin-Ahx-[Ala5,Phe6,Atz(2 kDa EtO-PEG*-{Biotin-Ahx-[Ala5,Phe6,Atz13*,Leu26,Arg28]GpTx-1(1-34)})13,Leu26,Arg28]GpTx-1(1-34) [Homodimeric Conjugate 4] |  |  | Nav1.4/Nav1.7 Use (hNav1.7 [2]): 38; Nav1.5/Nav1.7 Use (hNav1.7 [2]): >110; IC50 (hNav1.7 [2]; read-out: Nav1.7 Use IC50): 91 nM
